Earlier results as cited in article PMC8087782, “Developing Nanodisc-ID for label-free characterizations of membrane proteins” (Communications Biology, 2021).

Assays:
[1] = molecular target: MalFGK2 (inward-facing) (Escherichia coli) (UniProt P02916); conditions: cited from earlier work
[2] = molecular target: MalFGK2 (outward-facing) (Escherichia coli) (UniProt P02916); conditions: cited from earlier work

In the case of MalE (from UniProt P0AEX9), the Kd [1] is given as 0.08 µM and the Kd [2] is given as 5 µM.
